PMC7363834, “A STING-based biosensor affords broad cyclic dinucleotide detection within single living eukaryotic cells” (Nature Communications, 2020)

Amino acid sequences for entries named in this document (tags omitted).
UniProt Q8C6L5, whole entry: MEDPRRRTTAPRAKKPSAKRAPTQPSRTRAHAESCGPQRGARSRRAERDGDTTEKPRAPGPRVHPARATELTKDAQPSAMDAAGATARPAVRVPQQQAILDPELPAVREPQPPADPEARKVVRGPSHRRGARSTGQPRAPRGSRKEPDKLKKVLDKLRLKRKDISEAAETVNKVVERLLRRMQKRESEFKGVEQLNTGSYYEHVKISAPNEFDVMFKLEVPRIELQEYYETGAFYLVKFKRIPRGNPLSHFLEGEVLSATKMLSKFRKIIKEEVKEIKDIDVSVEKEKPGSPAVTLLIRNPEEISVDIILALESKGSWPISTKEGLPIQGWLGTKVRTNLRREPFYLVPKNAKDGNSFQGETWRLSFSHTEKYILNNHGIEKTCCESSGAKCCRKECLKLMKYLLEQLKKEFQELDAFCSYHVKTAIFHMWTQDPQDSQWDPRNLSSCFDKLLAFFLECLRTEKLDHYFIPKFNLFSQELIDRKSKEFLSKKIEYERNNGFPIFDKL

Key:
[1] = molecular target: recombinant SUMO-mcGAS (cGAS) (Mus musculus, UniProt Q8C6L5); assay: cGAS enzyme activity assay (2ʼ3ʼ-cGAMP production) read out with BioSTING FRET; conditions: fixed cGAS and ISD; 250 µM ATP, 250 µM GTP, 50 ng ISD; linear rates fit
[2] = reason the compound failed in development; ref Pfizer; cited from earlier work
cGAS = conditions: read-out: reported IC50; cited from earlier work

- IC50 [1]: 12.3 µM
SMILES: O=C(NC1CCCCC1C(=O)O)c1cnn2c(O)cc(-c3ccccc3)nc12 (stereo not drawn)
- access to the cytosol [2]: inability to access the cytosol
- IC50 (cGAS): 5 µM
